This note sets out measurements from patent US7632933B2, “Corticotropin releasing factor 2 receptor agonists” (priority 2002, dated 2009).

Where only a bound is given, the exact number is not on record here.

One assay concerns the target T1, CRF1R (Homo sapiens, UniProt P34998).
T1 sequence (P34998 24-415): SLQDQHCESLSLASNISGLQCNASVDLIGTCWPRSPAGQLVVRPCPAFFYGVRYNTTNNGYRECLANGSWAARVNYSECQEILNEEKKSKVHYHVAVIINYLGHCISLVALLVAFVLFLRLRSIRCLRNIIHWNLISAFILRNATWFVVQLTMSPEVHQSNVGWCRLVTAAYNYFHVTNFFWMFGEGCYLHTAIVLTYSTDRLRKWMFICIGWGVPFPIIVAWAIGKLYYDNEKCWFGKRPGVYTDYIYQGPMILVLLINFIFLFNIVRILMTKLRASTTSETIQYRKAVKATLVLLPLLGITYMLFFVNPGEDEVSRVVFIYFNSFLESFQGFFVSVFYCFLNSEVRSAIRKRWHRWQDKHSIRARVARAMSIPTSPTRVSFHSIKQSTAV
Kind of assay: CRF1R agonist activity (EC50 and Emax), called comparative CRF binding. The settings on record: CRF1R; for EC50: CRF1R EC50 (nM). Type of assay: cell-based. The source says:
(§1) The pharmacological activity and selectivity of the peptides of present invention can be determined using published test procedures. See, e.g, U.S. patent application Ser. No. 09/799,978. Because CRF2R and CRF1R are homologous proteins, it is expected that a certain proportion of agonists for CRF2R will also function as agonists of CRF1R. As discussed above, activation of CRF1R induces activation of the HPA axis since increased corticosteroid production leads to skeletal muscle atrophy. In most cases in which an increase in muscle mass or function is desired, it is not desirable to activate the HPA axis.
(§2) Because it is desirable to discriminate binding between CRF2R, as compared with CRF1R, the assays described above may be conducted using a cell, or membrane from a cell, which expresses only CRF2R or the assays can be conducted with a recombinant source of CRF2R. Cells expressing both forms of CRFR may be modified using homologous recombination to inactivate or otherwise disable the CRF1R gene. Alternatively, if the source of CRFR contains more than one CRFR type, the background signal produced by the receptor which is not of interest must be subtracted from the signal obtained in the assay. […] Known antagonists of CRFRs include, but are not limited to, antalarmin (CRF1R selective), antisauvagine-30 (CRF2R selective) and astressin (nonselective for CRF1R/CRF2R).
(§3) Cell-based assays include the steps of contacting cells which express CRF1R or CRF2R with a peptide of the present invention or control and measuring activation of the CRFR by measuring the expression or activity of components of the CRFR signal transduction pathways.
(§4) For example, after contact with a peptide of the present invention, lysates of the cells can be prepared and assayed for induction of cAMP. cAMP is induced in response to Gαs activation. Because Gαs is activated by receptors other than CRFR and because a test peptide may be exerting its effect through CRFRs or by another mechanism, two control comparisons are relevant for determining whether the peptide increases levels of cAMP via activation of a CRFR. One control compares the cAMP level of cells contacted with the peptide and the cAMP level of cells contacted with a control compound (i.e., the vehicle in which the peptide is dissolved).
(§5) In one example, cAMP induction is measured with the use of DNA constructs containing the cAMP responsive element linked to any of a variety of reporter genes can be introduced into cells expressing CRFRs. Such reporter genes include, but are not limited to, chloramphenicol acetyltransferase (CAT), luciferase, glucuronide synthetase, growth hormone, fluorescent proteins (e.g., Green Fluorescent Protein), or alkaline phosphatase. Following exposure of the cells to the peptide, the level of reporter gene expression can be quantitated to determine the peptide's ability to increase cAMP levels and thus determine the peptide's ability to activate the CRFR.
(§6) In addition to using cells expressing full length CRFRs, cells can be engineered which express CRFRs containing the ligand binding domain of the receptor coupled to, or physically modified to contain, reporter elements or to interact with signaling proteins. For example, a wild type CRFR or CRFR fragment can be fused to a G-protein resulting in activation of the fused G-protein upon agonist binding to the CRFR portion of the fusion protein. […] In addition, alternative pathways for induction of the CRE reporter could be eliminated to reduce basal levels.

A further assay deals with T2, CRF2R (Homo sapiens, UniProt Q13324).
T2 sequence (Q13324 1-411): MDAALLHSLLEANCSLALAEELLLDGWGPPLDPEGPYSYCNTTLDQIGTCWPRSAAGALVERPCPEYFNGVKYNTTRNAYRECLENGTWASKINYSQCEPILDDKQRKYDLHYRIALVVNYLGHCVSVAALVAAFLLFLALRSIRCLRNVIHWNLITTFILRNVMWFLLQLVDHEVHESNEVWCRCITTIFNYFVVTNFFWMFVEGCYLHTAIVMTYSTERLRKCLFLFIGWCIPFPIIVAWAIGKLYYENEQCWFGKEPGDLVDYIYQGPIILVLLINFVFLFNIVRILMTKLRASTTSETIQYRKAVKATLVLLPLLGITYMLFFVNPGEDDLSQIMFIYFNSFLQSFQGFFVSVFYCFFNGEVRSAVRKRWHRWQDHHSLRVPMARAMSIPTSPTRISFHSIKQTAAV
Kind of assay: CRF2R agonist activity (EC50 and Emax), called comparative CRF binding. Type of assay: cell-based. To be noted: CRF2R; for EC50: CRF2R EC50 (nM).
Source text: as §1, §2, §3, §4, §5, §6

For the compound `CC[C@H](C)[C@H](NC(=O)[C@@H](NC(=O)[C@H](CC(=O)O)NC(=O)[C@H](CC(C)C)NC(=O)[C@H](CC(C)C)NC(=O)[C@H](CC(C)C)NC(=O)[C@H](CCCNC(=N)N)NC(=O)[C@H](CC(N)=O)NC(=O)[C@H](CC(N)=O)NC(=O)[C@H](C)NC(=O)[C@H](C)NC(=O)[C@H](CCC(N)=O)NC(=O)[C@H](CCC(N)=O)NC(=O)[C@H](CCCCN)NC(=O)[C@H](CCC(=O)O)NC(=O)[C@H](CCCCN)NC(=O)[C@H](CCC(=O)O)NC(=O)[C@H](CCC(N)=O)NC(=O)[C@H](CCCCN)NC(=O)[C@H](CCC(=O)O)NC(=O)[C@@H](NC(=O)[C@H](CCC(=O)O)NC(=O)[C@@H](NC(=O)[C@H](CCSC)NC(=O)[C@H](CCCCN)NC(=O)[C@H](CCCNC(=N)N)NC(=O)[C@H](CC(C)C)NC(=O)[C@H](CC(C)C)NC(=O)[C@H](CO)NC(=O)[C@@H](NC(=O)[C@@H]1CCCN1C(=O)[C@H](CC(C)C)NC(=O)[C@H](CC(=O)O)NC(=O)[C@@H](NC(=O)[C@H](CO)NC(=O)[C@@H](NC(=O)[C@@H]1CCCN1C(=O)[C@@H]1CCCN1C(=O)CNC(=O)[C@@H]1CCC(=O)N1)[C@@H](C)CC)[C@@H](C)CC)[C@@H](C)O)[C@@H](C)CC)[C@@H](C)CC)[C@@H](C)O)C(N)=O` [compound 43], the results for the concentration for a half-maximal effect (EC50) on CRF1R and on CRF2R were greater than 1000 nM and greater than 100 nM, respectively.
Consider `CC[C@H](C)[C@H](NC(=O)[C@@H](NC(=O)[C@H](CC(=O)O)NC(=O)[C@H](CC(C)C)NC(=O)[C@H](CC(C)C)NC(=O)[C@H](CC(C)C)NC(=O)[C@H](CCCNC(=N)N)NC(=O)[C@H](CC(N)=O)NC(=O)[C@H](CC(N)=O)NC(=O)[C@H](C)NC(=O)[C@H](C)NC(=O)[C@H](CCC(N)=O)NC(=O)[C@H](CCC(N)=O)NC(=O)[C@H](CCCCN)NC(=O)[C@H](CCC(=O)O)NC(=O)[C@H](CCCCN)NC(=O)[C@H](CCC(=O)O)NC(=O)[C@H](CCC(N)=O)NC(=O)[C@H](CCCCN)NC(=O)[C@H](CCC(=O)O)NC(=O)[C@@H](NC(=O)[C@H](CCC(=O)O)NC(=O)[C@@H](NC(=O)[C@H](CCSC)NC(=O)[C@H](CCCCN)NC(=O)[C@H](CCCNC(=N)N)NC(=O)[C@H](CC(C)C)NC(=O)[C@H](CC(C)C)NC(=O)[C@H](CCCCN)NC(=O)[C@@H](NC(=O)[C@@H]1CCCN1C(=O)[C@H](CC(C)C)NC(=O)[C@H](CC(=O)O)NC(=O)[C@@H](NC(=O)[C@H](CO)NC(=O)[C@@H](NC(=O)[C@@H]1CCCN1C(=O)[C@@H]1CCCN1C(=O)CNC(=O)[C@@H]1CCC(=O)N1)[C@@H](C)CC)[C@@H](C)CC)[C@@H](C)O)[C@@H](C)CC)[C@@H](C)CC)[C@@H](C)O)C(N)=O` [compound 45], for which the EC50 (as a rule, the concentration giving half of the maximal effect) at CRF1R is greater than 1000 nM; on CRF2R, greater than 100 nM.
As to `CC[C@H](C)[C@H](NC(=O)[C@@H](NC(=O)[C@H](CC(=O)O)NC(=O)[C@H](CC(C)C)NC(=O)[C@H](CC(C)C)NC(=O)[C@H](CC(C)C)NC(=O)[C@H](CCCNC(=N)N)NC(=O)[C@H](CC(N)=O)NC(=O)[C@H](CC(N)=O)NC(=O)[C@H](C)NC(=O)[C@H](C)NC(=O)[C@H](CCC(N)=O)NC(=O)[C@H](CCC(N)=O)NC(=O)[C@H](CCCCN)NC(=O)[C@H](CCC(=O)O)NC(=O)[C@H](CCCCN)NC(=O)[C@H](CCC(=O)O)NC(=O)[C@H](CCC(N)=O)NC(=O)[C@H](CCCCN)NC(=O)[C@H](CCC(=O)O)NC(=O)[C@@H](NC(=O)[C@H](CCC(=O)O)NC(=O)[C@@H](NC(=O)[C@H](CCSC)NC(=O)[C@H](CCCCN)NC(=O)[C@H](CCCNC(=N)N)NC(=O)[C@H](CC(C)C)NC(=O)[C@H](CC(C)C)NC(=O)[C@@H](NC(=O)[C@@H](NC(=O)[C@@H]1CCCN1C(=O)[C@H](CC(C)C)NC(=O)[C@H](CC(=O)O)NC(=O)[C@@H](NC(=O)[C@H](CO)NC(=O)[C@@H](NC(=O)[C@@H]1CCCN1C(=O)[C@@H]1CCCN1C(=O)CNC(=O)[C@@H]1CCC(=O)N1)[C@@H](C)CC)[C@@H](C)CC)[C@@H](C)O)C(C)C)[C@@H](C)CC)[C@@H](C)CC)[C@@H](C)O)C(N)=O` [compound 46], the EC50 on CRF1R was greater than 1000 nM; on CRF2R it was greater than 100 nM.
Regarding `CC[C@H](C)[C@H](NC(=O)[C@@H](NC(=O)[C@H](CC(=O)O)NC(=O)[C@H](CC(C)C)NC(=O)[C@H](CC(C)C)NC(=O)[C@H](CC(C)C)NC(=O)[C@H](CCCNC(=N)N)NC(=O)[C@H](CC(N)=O)NC(=O)[C@H](CC(N)=O)NC(=O)[C@H](C)NC(=O)[C@H](C)NC(=O)[C@H](CCC(N)=O)NC(=O)[C@H](CCC(N)=O)NC(=O)[C@H](CCCCN)NC(=O)[C@H](CCC(=O)O)NC(=O)[C@H](CCCCN)NC(=O)[C@H](CCC(=O)O)NC(=O)[C@H](CCC(N)=O)NC(=O)[C@H](CCCCN)NC(=O)[C@H](CCC(=O)O)NC(=O)[C@@H](NC(=O)[C@H](CCC(=O)O)NC(=O)[C@@H](NC(=O)[C@H](CCSC)NC(=O)[C@H](CCCCN)NC(=O)[C@H](CCCNC(=N)N)NC(=O)[C@H](CC(C)C)NC(=O)[C@H](CC(C)C)NC(=O)[C@H](C)NC(=O)[C@@H](NC(=O)[C@@H]1CCCN1C(=O)[C@H](CC(C)C)NC(=O)[C@H](CC(=O)O)NC(=O)[C@@H](NC(=O)[C@H](CO)NC(=O)[C@@H](NC(=O)[C@@H]1CCCN1C(=O)[C@@H]1CCCN1C(=O)CNC(=O)[C@@H]1CCC(=O)N1)[C@@H](C)CC)[C@@H](C)CC)[C@@H](C)CC)[C@@H](C)CC)[C@@H](C)CC)[C@@H](C)O)C(N)=O` [compound 47], the EC50 at CRF1R is no less than 1000 nM; at CRF2R it was greater than 100 nM. Moreover, the “CRF1R (Emax %)” value on CRF1R (Emax) is “(12) %”. In addition, the “CRF2R (Emax %)” value on CRF2R (Emax) is “(66) %”.
On to `CC[C@H](C)[C@H](NC(=O)[C@@H](NC(=O)[C@H](CC(=O)O)NC(=O)[C@H](CC(C)C)NC(=O)[C@H](CC(C)C)NC(=O)[C@H](CC(C)C)NC(=O)[C@H](CCCNC(=N)N)NC(=O)[C@H](CC(N)=O)NC(=O)[C@H](CC(N)=O)NC(=O)[C@H](C)NC(=O)[C@H](C)NC(=O)[C@H](CCC(N)=O)NC(=O)[C@H](CCC(N)=O)NC(=O)[C@H](CCCCN)NC(=O)[C@H](CCC(=O)O)NC(=O)[C@H](CCCCN)NC(=O)[C@H](CCC(=O)O)NC(=O)[C@H](CCC(N)=O)NC(=O)[C@H](CCCCN)NC(=O)[C@H](CCC(=O)O)NC(=O)[C@@H](NC(=O)[C@H](CCC(=O)O)NC(=O)[C@@H](NC(=O)[C@H](CCSC)NC(=O)[C@H](CCCCN)NC(=O)[C@H](CCCNC(=N)N)NC(=O)[C@H](CC(C)C)NC(=O)[C@H](CC(C)C)NC(=O)[C@H](Cc1ccc(O)cc1)NC(=O)[C@H](CCC(=O)O)NC(=O)[C@@H]1CCCN1C(=O)[C@H](CC(C)C)NC(=O)[C@H](CC(=O)O)NC(=O)[C@@H](NC(=O)[C@H](CO)NC(=O)[C@@H](NC(=O)[C@@H]1CCCN1C(=O)[C@@H]1CCCN1C(=O)CNC(=O)[C@@H]1CCC(=O)N1)[C@@H](C)CC)[C@@H](C)CC)[C@@H](C)CC)[C@@H](C)CC)[C@@H](C)O)C(N)=O` [compound 48], for which the values for the EC50 on CRF1R and on CRF2R were no less than 1000 nM and no less than 100 nM, respectively.
